## Ab-91 heavy chain CDR variants: yeast mating affinities

The measurements come from Engelhart et al. 2022 (doi:10.1038/s41597-022-01779-4) through the FLAb antibody collection.

Target peptide (SARS-CoV-2 spike, HR2 region): PDVDLGDISGINAS

Each scFv is VL, a 15-residue (Gly4Ser)3 linker, VH, as in the parent Ab-91, and differs from it in the CDRs of the heavy chain only.
VL: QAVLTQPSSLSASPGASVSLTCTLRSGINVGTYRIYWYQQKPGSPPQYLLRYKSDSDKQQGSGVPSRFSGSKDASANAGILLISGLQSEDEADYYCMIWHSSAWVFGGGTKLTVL
VH: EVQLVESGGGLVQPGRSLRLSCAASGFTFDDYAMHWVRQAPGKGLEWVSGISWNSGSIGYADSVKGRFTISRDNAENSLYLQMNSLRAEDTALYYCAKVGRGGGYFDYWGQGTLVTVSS

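Phage display of a naive human antibody library on the peptide gave the parent. In library AAYL51, one, two or three CDR residues were substituted; doubles and triples were drawn at random. In AlphaSeq, yeast of one mating type display the scFv and yeast of the other type display the target. The frequency of each diploid, read from paired DNA barcodes, reflects how well the two displayed proteins bind. The ratio of observed to expected reads was calibrated, replicate by replicate, on BCL2-family standards whose Kd was known from biolayer interferometry. Mating was done three times.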

Variants are written as CDR1, CDR2 and CDR3 of the heavy chain (limits as in the source). Parent: GFTFDDYAMH, GISWNSGSIGYADSVK, VGRGGGYFDY.
This list gathers variants with a substitution at I58 (VH, numbered from residue 1).
Values are apparent Kd, the geometric mean of the replicates that gave a signal; lower means stronger binding.
Where no diploid with the target was found in any replicate, the entry reads "no signal": below detection, most likely a poor binder, though not proof of it.
Parent in this assay: reference entry 72 nM, copy in this library 7.5 nM.
Three control strains display no target. For library AAYL51, 21% of the pairings with them gave a signal, with a median of 34 µM and one signal in twenty below 1.8 µM, so weak values seen in few replicates may be background.

* GFTFDDYAMH | GISINSGSCGMADSVK | VGRGGGYFDY: 19 µM (3 of 3 replicates)
* GFTFDDYAMH | AISWNSGSVGYADSVK | VGRGGGYFDY: no signal (0 of 3 replicates)
* GFTFDDYAMH | GTSWNSGSCGYADSVK | VGRGGGYFDS: 190 nM (3 of 3 replicates)
* GFTFDDYAMH | GISWNSGSAGYDDSVK | VGRGGGYFDY: 1.1 µM (3 of 3 replicates)
* GFTFDDYAMH | GSSWNSGSEQYADSVK | VGRGGGYFDY: 25 µM (1 of 3 replicates)
* GFTFDDYAME | SISWNSGSEGYADSVK | VGRGGGYFDY: 52 µM (1 of 3 replicates)
* GFTFDDYAMH | GIFWNSGSEGYADSVK | VSRGGGYFDY: 5.7 µM (1 of 3 replicates)
* GFTFDDYAMH | GISSNSGSNGYADSVK | VGRGGGYFEY: 1.1 µM (1 of 3 replicates)
* GFTFDDYASH | GISWNSGSAGYADSVK | VGRGGGRFDY: 29 µM (1 of 3 replicates)
* GFTFDKIAMH | GISWNSGSDGYADSVK | VGRGGGYFDY: 120 nM (3 of 3 replicates)
* GFTFDCYAMH | GISWNSGSVGYADSVE | VGRGGGYFDY: 3.5 nM (3 of 3 replicates)
* GFTFDDYAMH | AISWNSGSDGYADSVK | VGWGGGYFDY: 33 µM (1 of 3 replicates)
* GFTFDDYAMH | GISWNSGSQGYADSVF | VGRGGGYFDW: 75 nM (3 of 3 replicates)
* GFTFDVYAMH | GISENSGSMGYADSVK | VGRGGGYFDY: 45 µM (2 of 3 replicates)
* GFTFDDYAMH | GISWNSGSAGYADEVK | VPRGGGYFDY: 67 µM (3 of 3 replicates)
* GFTFDDYAMH | GISINSGSEDYADSVK | VGRGGGYFDY: 93 µM (2 of 3 replicates)
* GFEFDDYAMH | GISWNSGSEGYADSVK | VGHGGGYFDY: 170 nM (3 of 3 replicates)
* GTTFDDYAMH | FISWNSGSVGYADSVK | VGRGGGYFDY: no signal (0 of 3 replicates)
* GFTFVDYAMH | GISWNSGSHGYADSVK | VGGGGGYFDY: no signal (0 of 3 replicates)
* GFTFDDYAMH | GISWNSGSSGYADTVK | VGRTGGYFDY: no signal (0 of 3 replicates)
* QFTFDDYAMH | GISWPSGSMGYADSVK | VGRGGGYFDY: no signal (0 of 3 replicates)
* GFTFDDYAMH | GISWNSGSYGPCDSVK | VGRGGGYFDY: no signal (0 of 3 replicates)
* HFTFDDYAMH | GISWNSGPVGYADSVK | VGRGGGYFDY: no signal (0 of 3 replicates)
* GFTFDDYAMH | GISWNSGSRGYQPSVK | VGRGGGYFDY: 59 nM (3 of 3 replicates)
* GFTFDDYAMH | GISWNSGSFGYFDSVK | VSRGGGYFDY: 5.8 µM (1 of 3 replicates)
* GFTFDDYAMH | GISWNSGSSRYADSVK | VARGGGYFDY: 590 µM (1 of 3 replicates)
* GFTFDDYAMH | GISWNSGSRGYADSVK | VGRGGGLSDY: 30 nM (3 of 3 replicates)
* GFTFDQYAMH | GISWQSGSQGYADSVK | VGRGGGYFDY: 57 nM (3 of 3 replicates)
* GFTFDDYKMH | CISWNSGSYGYADSVK | VGRGGGYFDY: 57 µM (1 of 3 replicates)
* GFTFDDYAMH | GISWNSGQCGYADPVK | VGRGGGYFDY: no signal (0 of 3 replicates)